Source: PubChem
Compounds with a hit are over-represented: about 2.3% of the library has one in this group of screens.
Yeast UUG start – alters start codon recognition fidelity in yeast | S. cerevisiae UUG-firefly luciferase reporter, luminescence/redox ratio | activity score, % at 18.7 µM | 350,000 compounds, 0.13% hits | AID 602363;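 active = replicate mean at a twofold rise or more, about +100% in these data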;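 note: firefly luciferase made from a UUG start codon reports start codon fidelity; reporter light over untreated wells divided by growth signal over untreated wells; some hits fall short of that in this replicate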
CendR NRP1 mod – modulators of CendR peptide binding to NRP-1, primary screen, biochemical, fluorescence polarization, uHTS; FAM-RPARPAR peptide binding to NRP-1; inhibition, % at 25 µM; hit rate 0.85% among 360,000; AID 602438, 2012;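 active = inhibition or corrected inhibition above about 18%, plus a signal ratio from 0.5 to 1.5, limit read from the data, passing the limit was not always enough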
ASAP1 inh – inhibitors of human ASAP1 ArfGAP activity, primary screen, biochemical, fluorescence polarization; AID 624377, 2012; ASAP1-stimulated ARF1 GTP hydrolysis, GDP FP detection; inhibition, % at 16.5 µM; hit rate 0.19% among 360,000; in the data active = inhibition above about 25%;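 also: 0% = vehicle with enzyme and substrate and 100% = no enzyme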
MC4R ag barr – MC4R agonists recruiting beta-arrestin, primary screen, cell-based, luminescence, agonist arm of biased-ligand search; activation, % at 8.9 µM; U2OS MC4R beta-arrestin complementation; percent of melanotan II response, DMSO zero; hit rate 0.98% among 360,000; Melanocortin receptor 4 (Homo sapiens), P32245; AID 540308, 2011;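 active = activation above a per-plate cutoff, the mean activation of sample wells on that plate plus 3 SD, cut at about 8% in these data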
ARFGAP1 inhibitor – inhibitors of rat ARFGAP1 GAP activity, primary screen, biochemical, fluorescence polarization, GDP tracer. AID 651572, 2012. ADP-ribosylation factor GTPase-activating protein 1 (Rattus norvegicus), Q62848. Arfgap1-stimulated ARF1 GTP hydrolysis, GDP FP detection. hit rate 0.26% among 360,000. inhibition, % at 16.5 µM;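 active = inhibition above a per-plate limit, mean inhibition of low control wells plus 3 SD, cut at about 25% in these data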;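 also: 0% = DMSO wells with enzyme and 100% = wells lacking Arfgap1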
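material = rat Arfgap1 catalytic domain, aa 1-136 | also added = human ARF1(Δ1-17)-GTP substrate | compound dosing = one concentration, 16.5 µM, DMSO 1.26% | times = GTP hydrolysis reaction 2 h at 25 °C | measured by = FP, GDP Alexa 633 tracer displaced from anti-GDP antibody, 620/688 nm | evaluation = percent inhibition of Arfgap1-stimulated GTP hydrolysis | replication = single well per compound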
MC4R antagonist – MC4R antagonists of cAMP signaling, primary screen, cell-based, TR-FRET, antagonist arm of biased-ligand search | Melanocortin receptor 4 (Homo sapiens), P32245 | MC4R-expressing cells, MTII-stimulated cAMP, LANCE TR-FRET | inhibition, % at 6.5 µM | hit rate 0.48% among 360,000 | AID 540295, 2011;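 active = inhibition above its plate's cutoff, the mean of tested wells on that plate plus 3 SD, cut at about 29% in these data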;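 also: 0% = Melanotan II alone and 100% = Melanotan II plus saturating MCL0020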
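System: U2OS-MC4R stable cell line; Technique: Eu-cAMP/anti-cAMP TR-FRET, emission 671 nm; Repeats: single well per compound; Also added: Melanotan II; Dosing: one concentration, 6.5 µM nominal; Schedule: 30-min compound, 1-h challenge, 1-h detection, room temperature.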
cAMP nonselect – nonselective cAMP signaling inhibitors, parental cells, counter-screen for MC4R biased antagonist project, cell-based, TR-FRET, U2OS, forskolin, triplicate | shares compounds with MC4R antagonist | LANCE TR-FRET | inhibition, % at 6.5 µM | hit rate 26% among 1,600;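 active = mean inhibition over triplicates above the low-control well mean plus 3 SD, set per campaign, cut at about 13% in these data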;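 also: signal is single emission at 671 nm which falls as cellular cAMP rises; 0% = forskolin-stimulated wells and 100% = buffer without forskolin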
MC4R antag conf – MC4R cAMP antagonists, retest, confirmation, cell-based, TR-FRET; MC4R-expressing cells, MTII-stimulated cAMP; hit rate 27% among 1,600; inhibition, % at 6.5 µM; shares compounds with MC4R antagonist; in the data active = inhibition above about 29%;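 also: 0% = agonist stimulated wells alone and 100% = agonist stimulated wells plus saturating reference antagonist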
An asterisk follows results filed as active; nt = no result given.

Chains of the proteins cited; added tags and fusions are not shown.
Melanocortin receptor 4 (Homo sapiens), P32245, UniProt P32245, whole entry, looked up: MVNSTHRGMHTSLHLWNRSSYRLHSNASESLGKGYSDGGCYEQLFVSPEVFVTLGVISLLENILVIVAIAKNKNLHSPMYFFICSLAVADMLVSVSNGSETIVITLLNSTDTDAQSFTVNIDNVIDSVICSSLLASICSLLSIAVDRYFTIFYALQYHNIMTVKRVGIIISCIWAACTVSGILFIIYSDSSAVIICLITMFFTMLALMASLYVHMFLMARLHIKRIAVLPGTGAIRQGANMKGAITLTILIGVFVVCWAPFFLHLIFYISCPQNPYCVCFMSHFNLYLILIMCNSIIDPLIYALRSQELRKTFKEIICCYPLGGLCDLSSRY
ADP-ribosylation factor GTPase-activating protein 1 (Rattus norvegicus), Q62848, UniProt Q62848, whole entry, looked up: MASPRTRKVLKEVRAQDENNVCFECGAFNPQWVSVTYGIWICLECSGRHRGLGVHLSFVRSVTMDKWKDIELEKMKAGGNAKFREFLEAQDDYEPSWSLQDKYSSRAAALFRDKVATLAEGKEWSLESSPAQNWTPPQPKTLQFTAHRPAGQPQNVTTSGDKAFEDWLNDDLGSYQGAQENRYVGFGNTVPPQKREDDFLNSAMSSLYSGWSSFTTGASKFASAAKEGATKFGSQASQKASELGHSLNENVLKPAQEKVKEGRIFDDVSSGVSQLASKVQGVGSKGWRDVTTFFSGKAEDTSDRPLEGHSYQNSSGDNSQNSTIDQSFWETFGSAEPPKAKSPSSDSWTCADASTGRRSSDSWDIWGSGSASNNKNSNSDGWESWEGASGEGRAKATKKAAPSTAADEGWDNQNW

1) COc1ccc(NC(=O)Nc2cccc3c2O[C@@H](CN(C)S(=O)(=O)c2ccc(Cl)cc2)[C@H](C)CN([C@@H](C)CO)C3=O)cc1
2) CC(C)Cc1nc2oc3c(Cl)ncnc3c2c2c1CCC2
3) COc1ccccc1C1(CCNC(C)c2cccs2)CCOC(C(C)C)C1 (stereo unspecified)
4) CCCC#Cc1cnc2c(c1)C(=O)N([C@H](C)CO)C[C@@H](C)[C@@H](CN(C)Cc1ccc(F)cc1)O2
5) O=C(c1ccccc1)N(CC1CCC1)C[C@@H]1N[C@H](CO)[C@@H]1c1ccccc1
6) COCCNc1nc(Oc2ccc(CC(=O)OC)cc2)c2sc(-c3ccccc3)cc2n1
7) COCCNc1nc(Oc2ccc(NC(C)=O)cc2)c2sc(-c3ccccc3)cc2n1
8) C[C@@H]1CN([C@H](C)CO)C(=O)c2cc(NC(=O)Nc3cccc4ccccc34)ccc2O[C@H]1CN(C)C
9) CCc1ccc(C(C(=O)NCc2ccc(F)cc2)N(C(=O)c2csnn2)C2CC2)cc1 (stereo unspecified)
10) O=C(C[C@@H]1CC[C@@H](NC(=O)Nc2ccccc2F)[C@@H](CO)O1)NCc1ccccc1

assay / compound	1	2	3	4	5	6	7	8	9	10
Yeast UUG start	-4	nt	-7	-14	4	-16	-8	-10	-10	1
CendR NRP1 mod	nt	-7	8	nt	nt	1	-9	nt	-6	nt
ASAP1 inh	nt	3	-4	nt	nt	7	7	nt	-4	nt
MC4R ag barr	nt	-4	1	nt	nt	4	6	nt	2	nt
ARFGAP1 inhibitor	nt	5	-4	nt	nt	6	21	nt	-1	nt
MC4R antagonist	nt	60*	47*	nt	nt	19	47*	nt	29*	nt
cAMP nonselect	nt	8	-4	nt	nt	nt	-2	nt	3	nt
MC4R antag conf	nt	43*	37*	nt	nt	nt	8	nt	3	nt

11) O=C(COC(=O)CNS(=O)(=O)c1ccc(F)c(F)c1F)Nc1ccc(OC(F)F)cc1
12) COC(=O)c1ccccc1NC(=O)N1CCN(S(C)(=O)=O)CC1
13) COC(=O)c1ccccc1NC(=O)N1CCN(c2ccccc2)CC1
14) CCOC(=O)c1ccc(N=c2sc(C(=O)OC)cc(=O)n2Cc2ccco2)cc1
15) CCOC(=O)c1ccc(N=c2sc(C(=O)OC)cc(=O)n2CCCN2CCOCC2)cc1
16) CCC(OC(=O)CNS(=O)(=O)c1ccccc1)C(=O)c1ccccc1 (stereo unspecified)
17) O=[N+]([O-])c1ccccc1S(=O)(=O)N1CCN(Cc2ccc(OCCO)cc2)CC1
18) O=C(NNS(=O)(=O)c1ccc(Cl)cc1)c1cccs1
19) COc1ccc(S(=O)(=O)NNC(=O)c2cccs2)cc1
20) CC(=O)Nc1ccc(Nc2nnc(-c3ccc(C)c(S(N)(=O)=O)c3)c3ccccc23)cc1
21) Cc1ccc(-c2nnc(Nc3ccc4c(c3)OCO4)c3ccccc23)cc1S(N)(=O)=O

assay / compound	11	12	13	14	15	16	17	18	19	20	21
Yeast UUG start	1	nt	nt	-22	22	-11	-8	nt	-24	-17	-20
CendR NRP1 mod	7	5	1	4	9	2	nt	6	3	1	-2
ASAP1 inh	11	-9	-5	-13	4	-7	nt	-11	3	-12	10
MC4R ag barr	-3	0	2	1	-1	0	nt	0	0	-2	2
ARFGAP1 inhibitor	-3	-19	2	2	-14	3	nt	-2	7	4	8
MC4R antagonist	29*	31*	-8	32*	12	37*	nt	2	33*	6	33*
cAMP nonselect	9	0	nt	10	nt	17*	nt	nt	1	nt	6
MC4R antag conf	18	5	nt	36*	nt	31*	nt	nt	-5	nt	15

Results in Yeast UUG start, CendR NRP1 mod and ARFGAP1 inhibitor, for two of the compounds above:
entry	canonical_smiles	Yeast UUG start	CendR NRP1 mod	ARFGAP1 inhibitor
15	CCOC(=O)c1ccc(N=c2sc(C(=O)OC)cc(=O)n2CCCN2CCOCC2)cc1	22	9	-14
16	CCC(OC(=O)CNS(=O)(=O)c1ccccc1)C(=O)c1ccccc1 (stereo unspecified)	-11	2	3
